This note sets out measurements from PMC11784021.

The assay has as its target AAV6 VP1-BR FITC-tagged peptide (residues 120-172) (adeno-associated virus serotype 6 (AAV6)). The experiment in a line: fluorescence polarisation; FITC-tagged AAV6 VP1-BR peptide at 2 nM; importin isoforms serially diluted from an upper concentration of 4.5 µM; three independent experiments. (In general: In fluorescence polarisation assays a small probe gives low polarisation when free and higher when bound to something large.)

In general, Kd refers to a measure of binding affinity in units of concentration. Read a high Kd as lower affinity. Take “human importin α1 lacking the IBB domain (hIMPα1ΔIBB) (from UniProt P52292 1-529) (domain or fragment)”: the Kd was determined as 557 nM.
